Experimental data from paper PMC9378673 (Nature Communications, 2022).

Sequences of proteins named here, by UniProt entry; tags and fusion partners are left off.
UniProt O75874, whole entry S280F: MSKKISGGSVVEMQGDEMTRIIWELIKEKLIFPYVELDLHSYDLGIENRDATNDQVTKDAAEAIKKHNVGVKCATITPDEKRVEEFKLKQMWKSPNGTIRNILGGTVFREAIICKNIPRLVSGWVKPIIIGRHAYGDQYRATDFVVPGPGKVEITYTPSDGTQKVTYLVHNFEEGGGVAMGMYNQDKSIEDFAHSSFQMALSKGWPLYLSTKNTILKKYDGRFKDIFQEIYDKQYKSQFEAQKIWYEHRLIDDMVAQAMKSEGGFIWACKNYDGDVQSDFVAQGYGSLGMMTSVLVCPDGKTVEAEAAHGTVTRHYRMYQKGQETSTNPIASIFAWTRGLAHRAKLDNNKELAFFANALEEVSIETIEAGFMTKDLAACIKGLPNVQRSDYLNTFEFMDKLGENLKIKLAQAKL
UniProt O75874, whole entry: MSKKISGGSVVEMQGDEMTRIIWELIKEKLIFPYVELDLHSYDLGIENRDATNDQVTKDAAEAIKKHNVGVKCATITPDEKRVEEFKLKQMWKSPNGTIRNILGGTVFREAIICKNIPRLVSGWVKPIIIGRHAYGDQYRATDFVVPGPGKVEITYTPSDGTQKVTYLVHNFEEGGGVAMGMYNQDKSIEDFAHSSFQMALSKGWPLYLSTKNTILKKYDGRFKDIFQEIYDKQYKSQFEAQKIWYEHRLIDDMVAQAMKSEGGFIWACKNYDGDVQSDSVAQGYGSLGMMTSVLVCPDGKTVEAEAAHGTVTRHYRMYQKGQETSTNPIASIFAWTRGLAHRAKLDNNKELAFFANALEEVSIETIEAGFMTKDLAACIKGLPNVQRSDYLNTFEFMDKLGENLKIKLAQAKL

Experiments:
IDH1 S280F = biological target: T1, IDH1 S280F (Homo sapiens, UniProt O75874, S280F); test: Steady-state kinetics, spectrophotometric NADPH absorption assay; assay type: biochemical; conditions: oxidative decarboxylation of isocitrate; 1 nM enzyme; varied substrate = label
T1 construct: made in house; host or cells: E. coli BL21(DE3)plysS
Procedure: (§1) This assay was used to study steady-state kinetics and inhibition of reactions catalysed by IDH1 variants. The assay buffer was 100 mM Tris, 10 mM MgCl2, 0.2 mM dithiothreitol (DTT), 0.005%(v/v) Tween 20, and 0.1 mg mL^−1 bovine serum albumin (BSA) (pH 8.0). For inhibition assays, IDH1 variants were incubated with an inhibitor for 12 min before the reaction was initiated by substrate addition. The standard error was derived from curve fitting using GraphPad Prism v9. See figure legends for details on specific kinetic assays (Figs. 1–3; Supplementary Fig. 5; Supplementary Table 1). […]
(§2) spectrophotometric NADPH absorption assay. Conditions: 100 mM Tris, 10 mM MgCl2, 0.2 mM DTT, 0.005 %(v/v) Tween 20, and 0.1 mg/mL bovine serum albumin (BSA), pH 8.0. […] (a) Michaelis Menten […]
(§3) parameters for the oxidative decarboxylation of isocitrate. Errors: standard error of the mean (n = 3). (b) Michaelis Menten parameters for the reduction of 2-OG to 2-HG. Errors: standard error of the mean (n = 3).

IDH1 wt = biological target: T2, IDH1 wt (Homo sapiens, UniProt O75874); test: as above; assay type: biochemical; conditions: oxidative decarboxylation of isocitrate; 1 nM enzyme; varied substrate = label
T2 construct: made in house; host or cells: E. coli BL21(DE3)plysS
Procedure: as §1, §2, §3

With `O=C(O)CC(C(=O)O)C(O)C(=O)O` (racemic) [DL-Isocitrate, DL-isocitric acid trisodium salt] the “kcat IDH1 S280F” value (IDH1 S280F) was 33.4 ± 0.9 s⁻¹ and the “kcat IDH1 wt” value (IDH1 wt) was 43 ± 1 s⁻¹.

Structures can show the parent of a compound that is named as a salt.
